Measurements taken from PubChem BioAssay (NCATS).
All entries are inconclusive by the source's own rule. Clear calls are listed elsewhere. The call rests on the fitted dose curve; in most records, active means well fitted curve in the direction sought with a large enough effect; inconclusive means small, poorly fitted or top-dose-only effect, or another doubt; inactive means no such curve, though single readings can be large; an effect the other way counts as inactive or inconclusive.
Potency means the concentration at half of the fitted maximal effect.

Protein sequences, listed by entry. Tags and fused reporters are not part of them.
UniProt P24462, whole entry, looked up: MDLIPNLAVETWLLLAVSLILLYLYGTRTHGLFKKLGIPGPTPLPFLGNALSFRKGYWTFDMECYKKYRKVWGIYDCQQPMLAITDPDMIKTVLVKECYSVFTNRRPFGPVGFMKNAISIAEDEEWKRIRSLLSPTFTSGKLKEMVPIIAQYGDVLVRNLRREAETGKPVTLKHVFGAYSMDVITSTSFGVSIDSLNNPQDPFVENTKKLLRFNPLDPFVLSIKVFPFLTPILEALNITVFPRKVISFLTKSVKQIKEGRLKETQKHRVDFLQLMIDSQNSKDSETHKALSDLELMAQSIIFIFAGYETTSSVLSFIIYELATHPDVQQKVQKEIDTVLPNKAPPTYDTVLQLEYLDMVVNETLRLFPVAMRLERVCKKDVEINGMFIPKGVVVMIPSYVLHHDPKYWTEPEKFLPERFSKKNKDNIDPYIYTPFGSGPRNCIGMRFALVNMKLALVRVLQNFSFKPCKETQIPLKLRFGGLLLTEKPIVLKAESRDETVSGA

Molecular target: Cytochrome P450 3A7 (Homo sapiens) (UniProt P24462)
Assay: Cytochrome P450 family 3 subfamily A member 7 (CYP3A7) small molecule antagonists: luciferase qHTS assay (AID 1963596; further: nearly all actives have a fitted effect of over 40% in size)
Conditions: P450-Glo CYP3A7 enzyme luminescence, 1 h
Excerpt: National Center for Advancing Translational Sciences [NCATS] Assay Overview: Cytochrome P450 (CYP) enzymes are membrane-bound hemeproteins that play a key role in metabolism of drugs and xenobiotics. The CYP3A subfamily is the most abundant, representing 30% of the total adult hepatic CYP content, whereas CYP3A7 is found predominantly in human fetal liver and accounts up to 50% of the total fetal hepatic CYP content. Testing the effect of chemicals on CYP isozymes is useful to minimize the adverse drug reactions and toxicities in the drug development process. Chemicals were tested for their effect on CYP enzyme activities by using P450-Glo (TM) screening systems (Promega Corporation, Madison, WI). These systems provide a luminescent method containing proluciferin substrates and are converted to luciferin products by CYP isozymes. The luciferin products formed are detected with a luciferin detection reagent, and the amount of light produced is proportional to CYP activity. P450-Glo (TM) CYP3A7 screening system (Catalog. No. V8812) was used to detect the compounds that interfere with CYP3A7 activity. The positive control compound used for CYP3A7 assay is ketoconazole (Sigma-Aldrich, St. Louis, MO).
Assay Protocol Summary: Two ul of enzyme-substrate mix was dispensed into medium binding white/solid 1536-well plates (Greiner Bio-One North America Inc., Monroe, NC) using a Flying Reagent Dispenser (FRD, Aurora Discovery, San Diego, CA). Compounds dissolved in DMSO, and positive control (ketoconazole) were transferred to the assay plates at 23 nl using a Pintool station (Wako, San Diego, CA). The assay plates were incubated at room temperature for 10 min. Then 2 ul of NADPH regeneration solution was added to each well of the assay plates using an FRD and incubated at room temperature for 1 h. The reaction was stopped by adding 4 ul of detection reagent using an FRD and after 20 min incubation at room temperature the luminescence signal was measured using a ViewLux plate reader (Perkin Elmer, Shelton, CT). Data were expressed as relative luminescence units.
With `CN(C(=O)Cc1ccc(Cl)c(Cl)c1)[C@H]1CC[C@@]2(CCCO2)C[C@@H]1N1CCCC1` the Potency was inconclusive: 27.5 µM. For `O=C(O[C@H]1CN2CCC1CC2)C1NCc2ccccc2[C@@H]1c1ccccc1` (stereo partly drawn), the Potency was inconclusive: 21.3 µM. For `CCNC(C)Cc1ccc2c(c1)OCO2` (stereo not drawn), the Potency was inconclusive: 15.2 µM. In the case of `Cc1cc([N+](=O)[O-])cc([N+](=O)[O-])c1O`, the Potency is reported as inconclusive: 35.6 µM.

Tested on: not listed separately
Assay: Viability qHTS for spleen associated tyrosine kinase inhibitor (SYKi) naive MV4-11 cells (AID 1963823); further: nearly all actives have a fitted effect of over 40% in size
Conditions: MV4-11 AML viability, CellTiter-Glo luminescence, 72 h
In the case of `CN(C(=O)Cc1ccc(Cl)c(Cl)c1)[C@H]1CCCC[C@H]1N1CCCC1`, the Potency is reported as inconclusive: 14.6 µM. For `CCn1c(=O)n([C@@H]2CCN(CC3CCCCCCC3)C[C@H]2CO)c2ccccc21`, the Potency was inconclusive: 14.8 µM. For `O=C(O[C@H]1CN2CCC1CC2)C1NCc2ccccc2[C@@H]1c1ccccc1` (stereo partly drawn), the Potency was inconclusive: 13 µM. In the case of `CCNC(C)Cc1ccc2c(c1)OCO2` (stereo not drawn), the Potency is reported as inconclusive: 29.4 µM. In the case of `CN(C)C1(c2ccccc2)CCC2(CC1)OCCc1c2[nH]c2ccc(F)cc12` (stereo not drawn), the Potency is reported as inconclusive: 0.58 µM.

Tested on: not listed separately
Assay: Viability qHTS for spleen associated tyrosine kinase inhibitor (SYKi) drug resistant MV4-11 cells (AID 1963824); further: nearly all actives have a fitted effect of over 35% in size
Conditions: SYKi-resistant MV4-11 viability, CellTiter-Glo, 72 h
Excerpt: Department of Medicine, Hematology/Oncology
University Hospital Frankfurt, Germany.
Trials have shown promising clinical activity of the selective SYK inhibitor entospletinib in patients with high expressing HOXA9/MEIS1 acute leukemias. As the development of resistance mechanisms is a common problem in the use of targeted drugs, we performed a chemical library screen to identify drug sensitivities in SYK inhibitor resistant AML cells. […] Glucocorticoids are potent immunosuppressants which work in part by inhibiting the transcription of cytokine genes.
Described herein is a viability screen to look for activity in the SYK inhibitor drug resistant cell line against four NCATS compound libraries (MIPE 5.0, NPC, NPACT, and Kinase) totaling 11372 compounds. Active hits were reacquired for confirmation and further secondary assay testing.
SEQUENCE No. (e.g., 1, 2, 3, etc.); […] (e.g., Cells, Incubation, Reagent, etc.); VALUE; DESCRIPTION.
1; Media; 2uL; white, solid-bottom Corning assay plate.
2; Compounds; 23nL; Echo acoustic dispenser.
3; Cell; 5uL; 500 cells per well.
4: Incubation; 72hr; 37 C, 5% CO2, 95% humidity.
5; Reagent; 3uL; CellTiter-Glo reagent (Promega).
6; Incubation; 10min; room temperature.
7; Detection; Luminescence; ViewLux plate reader (PerkinElmer).
NOTES (numbers refer to Sequence numbers above
1. Quantitative high-throughput screening (qHTS) of small molecule compounds was conducted on drug resistant SYKi MV4-11 cell line.
2. Twenty-three nanoliter of small molecule compounds were added to each assay plates using the Echo acoustic dispenser (Beckman Coulter).
3. Cells were seeded into the assay plates at a final density of 500 cells in 5uL of media per well using the Multidrop Combi dispenser.
4. Plates were covered with stainless steel gasketed lids and incubated for 72 hours at standard cell culture conditions.
5. Viability was assessed by adding 3uL of CellTiter-Glo detection reagent (Promega).
6. Plates were covered with gasket lids and incubated for 10 minutes at room temperature.
7. Luminescence was measured on a ViewLux plate reader (PerkinElmer).
For `CN(C(=O)Cc1ccc(Cl)c(Cl)c1)[C@H]1CCCC[C@H]1N1CCCC1`, the Potency was inconclusive: 11.6 µM. For `O=C(O[C@H]1CN2CCC1CC2)C1NCc2ccccc2[C@@H]1c1ccccc1` (stereo partly drawn), the Potency was inconclusive: 20.6 µM. In the case of `CCNC(C)Cc1ccc2c(c1)OCO2` (stereo not drawn), the Potency is reported as inconclusive: 82.8 µM. For `CN(C)C1(c2ccccc2)CCC2(CC1)OCCc1c2[nH]c2ccc(F)cc12` (stereo not drawn), the Potency was inconclusive: 0.326 µM.
